Screening results as filed in PubChem.
The list is not random: actives were taken first. Their share in the collection is about 1.9%.
PDI inh – blocks human protein disulfide isomerase activity | PDI insulin aggregation turbidity, A650, 90 min | inhibition, % at 10 µM | P07237 | AID 588391 | actives 0.052% (n = 350,000);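 active means mean inhibition across replicates of 30% or more, whatever share of single replicates reach that level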
ARNT TACC3 PPI – ARNT/TACC3 interaction disruption | Q9Y6A5 | AlphaScreen His-ARNT PAS-B/GST-TACC3 binding, luminescence; TACC3 fragment carries E629A point mutation | inhibition, % at 9.99 µM | actives 0.66% (n = 390,000) | AID 623870;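 active means mean inhibition of replicates at least 50% and at least half of replicates each reaching 50%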;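 further: 0% = complete ARNT plus TACC3 wells and 100% = ARNT alone without TACC3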
UUG fidelity – modulators of yeast start codon fidelity, primary screen, whole organism, S. cerevisiae, single point, plate reader | AID 602363, 2012 | actives 0.13% (n = 350,000) | activity score, % at 18.7 µM | S. cerevisiae UUG-firefly luciferase reporter, luminescence/redox ratio;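 active means replicate mean at a twofold rise or more, about +100% in these data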;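 further: firefly luciferase made from a UUG start codon reports start codon fidelity; reporter light over untreated wells divided by growth signal over untreated wells; some hits fall short of that in this replicate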
ERp5 block – inhibitors of human ERp5; Q15084; ERp5 insulin aggregation, absorbance 650 nm, 90 min; inhibition, % at 9.99 µM; actives 0.05% (n = 350,000);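 active means mean replicate inhibition above about 25%, with every replicate also reaching it, limit read from the data, passing the limit was not always enough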
FGF22 binding – shifts melting point of recombinant human FGF22; activity (Tm shift, normalised), % at 9.99 µM; recombinant FGF22 thermal shift, SYPRO orange fluorescence; percent of sucrose octasulfate shift, DMSO zero; actives 1.5% (n = 340,000);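 active means mean Tm shift, scaled 0 neutral to 100 positive control, at about 1.3% or above, every replicate too, limit read from the data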
PglD DTNB – PglD (C. jejuni) enzyme inhibition; AID 602405; inhibition, % at 12.5 µM; actives 0.098% (n = 360,000); purified PglD enzyme, DTNB colorimetric CoA detection; in the data active means inhibition above about 16%, passing the limit was not always enough
ARNT Alpha ctr-1 – interferes with AlphaScreen signal, flagging false ARNT-TACC3 hits; shares compounds with ARNT TACC3 PPI; His-ARNT PASB-GST AlphaScreen artifact counter-screen, luminescence; actives 50% (n = 1,200); AC50, µM (highest dose often 68 µM), for inactives: top-dose activity change, negative = signal decrease;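 active means every separate test run was called active for a drop in luminescence, with AC50 within twice the top valid dose, actives reach about 71 µM in these data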
ARNT Alpha ctr-2 – AlphaScreen artifact flagged for ARNT-TACC3 inhibitors | shares compounds with ARNT TACC3 PPI | Dual-tagged His-ARNT PASB-GST AlphaScreen artifact counter-screen | AC50, µM | actives 70% (n = 45) | AID 720564;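 active means luminescence drop, with half-maximal potency fitted within twice the sample's top valid dose, cut at about 70 µM in these data; inactive means the rest, including signal moving the wrong way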
* = called active by the depositor; . = no result; [ ] = another dose, or the depositor's remark.

SMILES	PDI inh	ARNT TACC3 PPI	UUG fidelity	ERp5 block	FGF22 binding	PglD DTNB	ARNT Alpha ctr-1	others
C[C@@H]1CCCCO[C@H](CN(C)Cc2ccc3c(c2)OCO3)[C@@H](C)CN([C@@H](C)CO)C(=O)c2cc(NC(=O)Nc3ccc(C(F)(F)F)cc3)ccc2O1	.	29	0	-2	-1	-1	.
C[C@@H]1CN([C@H](C)CO)C(=O)c2cc(N(C)C)ccc2O[C@@H](C)CCCCO[C@@H]1CN(C)Cc1ccc2c(c1)OCO2	.	57*	29	1	-1	2	58µM*
C[C@@H]1CN([C@H](C)CO)C(=O)c2cc(NC(=O)C3CCCCC3)ccc2O[C@@H](C)CCCCO[C@@H]1CN(C)Cc1ccncc1	.	7	-6	-3	0	0	.
CO[C@@H]1CN(C)C(=O)c2ccc(NC(=O)C3CC3)cc2OC[C@@H](C)N(Cc2ccccc2)C[C@H]1C	.	8	28	-2	0	0	.
CCCN(C)C[C@H]1OCCCC[C@H](C)Oc2ccc(NS(=O)(=O)c3c(C)noc3C)cc2C(=O)N([C@@H](C)CO)C[C@H]1C	.	-3	6	1	1	1	.
C[C@@H]1CN([C@H](C)CO)S(=O)(=O)c2ccc(-c3ccc(C(=O)N(C)C)cc3)cc2O[C@H]1CN(C)Cc1ccccc1C(=O)O	.	1	5	-1	0	-2	.
C/C=C/c1cnc2c(c1)C(=O)N([C@@H](C)CO)C[C@H](C)[C@@H](CN(C)Cc1cccc(C(=O)O)c1)O2	.	2	.	-2	0	0	.
CN(Cc1ccccc1)C(=O)c1[nH]cnc1C(=O)Nc1nccs1	-1	55*	-6	5	0	-2	-30%
CCCN(C)C[C@@H]1Oc2ncc(C#CCC(C)C)cc2C(=O)N([C@@H](C)CO)C[C@H]1C	.	37*	15	-6	0	2	-20%[42 µM]
C[C@H]1CN([C@@H](C)CO)C(=O)c2cc(C#Cc3ccccn3)cnc2O[C@@H]1CN(C)Cc1ccccc1	2	active	4	10	0	-5	-7%[42 µM]
C[C@H](CO)N1C[C@H](C)[C@@H](CN(C)Cc2ccccc2)Oc2ncc(C#Cc3ccccn3)cc2C1=O	.	.	-13	.	.	.	.
CCCN(C)C[C@H]1Oc2ncc(C#CCC(C)C)cc2C(=O)N([C@@H](C)CO)C[C@@H]1C	.	-2	-5	4	0	1	.
C[C@H](CO)N1C[C@H](C)[C@H](CN(C)Cc2ccccn2)Oc2ncc(C#CC3(O)CCCC3)cc2C1=O	.	.	.	15	0	5	.
C[C@H](CO)N1C[C@H](C)[C@@H](CN(C)Cc2ccccn2)Oc2ncc(C#CC3(O)CCCC3)cc2C1=O	.	19*	.	2	0	12	-9%[38 µM]
O=C(Nc1nc(-c2ccccn2)cs1)c1ccc(F)c(S(=O)(=O)N2CCOCC2)c1	-7	68*	-17	11	0	3	9µM*
Cc1ccc(C(=O)Nc2nc(-c3ccccn3)cs2)cc1S(=O)(=O)N1CCOCC1	-2	66*	-20	12	0	-5	24µM*	ARNT Alpha ctr-2=10*
Cc1ccc(S(=O)(=O)N2CCOCC2)cc1C(=O)Nc1nc(-c2cccnc2)cs1	0	4	-5	5	0	6	.
Cc1ccc(C(=O)Nc2ccccn2)cc1S(=O)(=O)N1CCOCC1	-2	3	-10	-3	0	-5	.
O=C(Nc1nc(-c2ccccn2)cs1)c1cc(S(=O)(=O)N2CCOCC2)ccc1F	-13	74*	-14	2	0	7	23µM*
O=C(Nc1cccnc1)c1ccc(F)c(S(=O)(=O)N2CCOCC2)c1	-7	6	-9	0	0	-8	.
CC(C)C#Cc1cnc2c(c1)C(=O)N([C@H](C)CO)C[C@@H](C)[C@@H](CN(C)C(=O)c1cccnc1)O2	.	-7	.	4	0	11	.

Pulled by structure from the list above (3):
SMILES	PDI inh	ARNT TACC3 PPI	UUG fidelity	ERp5 block	FGF22 binding	PglD DTNB	ARNT Alpha ctr-1	others
C[C@H](CO)N1C[C@H](C)[C@@H](CN(C)Cc2ccccc2)Oc2ncc(C#Cc3ccccn3)cc2C1=O	.	.	-13	.	.	.	.
Cc1ccc(C(=O)Nc2nc(-c3ccccn3)cs2)cc1S(=O)(=O)N1CCOCC1	-2	66*	-20	12	0	-5	24µM*	ARNT Alpha ctr-2=10*
C[C@@H]1CN([C@H](C)CO)S(=O)(=O)c2ccc(-c3ccc(C(=O)N(C)C)cc3)cc2O[C@H]1CN(C)Cc1ccccc1C(=O)O	.	1	5	-1	0	-2	.
